According to patent US11028072B2, “2,4-diamino-6-ethylpyrimidine derivatives with antimalarial activities against Plasmodium falciparum” (National Science and Technology Development Agency, priority 2015, dated 2021):

test system: Human dihydrofolate reductase (hDHFR); assay: Inhibition of human dihydrofolate reductase (Ki); type: biochemical; conditions: Ki hDHFR divided by Ki quadruple mutant pfDHFR

Row | Structure (SMILES) | Selectivity ratio of Ki hDHFR/Ki QM
1 | CCc1nc(N)nc(N)c1-c1cn(-c2cccc(C(=O)O)c2)nn1.Cl [Compound 2, 2,4-diamino-6-ethyl-5-(1-(3-(carboxy)phenyl)-1H-1,2,3-triazol-4-yl)pyrimidine Hydrochloride] | 15.03
2 | CCc1nc(N)nc(N)c1-c1cn(Cc2ccc(C(=O)OC)cc2)nn1 [Compound 4] | 106.74
3 | CCc1nc(N)nc(N)c1-c1cn(Cc2ccc(C(=O)O)cc2)nn1 [Compound 5] | 25.75
4 | CCc1nc(N)nc(N)c1-c1cn(CCc2ccccc2)nn1 [Compound 7] | 45.94
5 | CCc1nc(N)nc(N)c1OCc1cn(-c2cccc(C(=O)O)c2)nn1.Cl [Compound 16, 2,4-diamino-6-ethyl-5-((1-(3-(carboxy)phenyl)-1H-1,2,3-triazol-4-yl)methoxy)pyrimidine Hydrochloride] | 132.21
6 | CCc1nc(N)nc(N)c1OCCc1cn(-c2ccc(C(=O)OC)cc2)nn1 [Compound 21] | 123.66
7 | CCc1nc(N)nc(N)c1OCCCc1cn(-c2ccc(C(=O)OC)cc2)nn1 [Compound 24] | 9.98
8 | CCc1nc(N)nc(N)c1OCc1cc(-c2cccc(OC)c2)no1 [Compound 38] | 47.32
9 | CCc1nc(N)nc(N)c1OCc1cc(-c2ccc(OC)cc2)no1 [Compound 42] | 25.71
10 | CCc1nc(N)nc(N)c1OCc1cc(-c2ccc([N+](=O)[O-])cc2)no1 [Compound 43] | >326.51
11 | CCc1nc(N)nc(N)c1OCc1cc(-c2ccc(C(=O)O)cc2)no1 [Compound 44] | >408.21
12 | CCc1nc(N)nc(N)c1OCc1coc(-c2cccc(OCC(=O)OCc3ccccc3)c2)n1 [Compound 53] | 14.96
13 | CCc1nc(N)nc(N)c1OCc1coc(-c2cccc(OCC(=O)O)c2)n1 [Compound 54] | 2.07
14 | CCc1nc(N)nc(N)c1OCc1coc(-c2ccc(Cl)cc2)n1 [Compound 55] | >3043.21
15 | CCc1nc(N)nc(N)c1OCc1coc(-c2ccc(OCC(=O)O)cc2)n1 [Compound 57] | 9.18
16 | CCc1nc(N)nc(N)c1OCCc1coc(-c2ccc(C(=O)O)cc2)n1 [Compound 59] | 11.15
17 | CCc1nc(N)nc(N)c1OCc1csc(-c2cccc(OCC(=O)OCc3ccccc3)c2)n1 [Compound 63] | 3.48
18 | CCc1nc(N)nc(N)c1OCc1csc(-c2cccc(OCC(=O)O)c2)n1 [Compound 64] | 4.45
19 | CCc1nc(N)nc(N)c1OCc1csc(-c2cccc(C(=O)OC)c2)n1 [Compound 65] | 3.44
20 | CCc1nc(N)nc(N)c1OCc1csc(-c2cccc(C(=O)O)c2)n1.Cl [Compound 66, 2,4-diamino-6-ethyl-5-((2-(3-(carboxy)phenyl)thiazol-4-yl)methoxy)pyrimidine Hydrochloride] | 2.79
21 | CCc1nc(N)nc(N)c1OCc1csc(-c2ccc(F)cc2)n1 [Compound 69] | 6.98
22 | CCc1nc(N)nc(N)c1OCc1csc(-c2ccc(OCC(=O)OCc3ccccc3)cc2)n1 [Compound 72] | 4.63
23 | CCc1nc(N)nc(N)c1OCc1csc(-c2ccc(OCC(=O)O)cc2)n1 [Compound 73] | 12.36
24 | CCc1nc(N)nc(N)c1OCc1csc(-c2ccc(C(=O)O)cc2)n1 [Compound 75] | 7.69

test system: Vero cells; assay: not given; conditions: IC50 Vero cells divided by IC50 V1/S
Excerpt: In Vitro Antimalarial Activites Against P. falciparum and Cytotoxicity Towards Mammalian Cells (Vero Cells)

Row | Structure (SMILES) | Selectivity ratio (IC50 ratio) Vero/V1/S
25 | CCc1nc(N)nc(N)c1-c1cn(Cc2ccc(OC(=O)N(c3ccccc3)c3ccccc3)cc2)nn1 [Compound 6] | >5.80
26 | CCc1nc(N)nc(N)c1-c1cn(CCOc2ccc(C(=O)OC)cc2)nn1 [Compound 10] | 1.85
27 | CCc1nc(N)nc(N)c1OCc1cn(-c2cccc(C(=O)OC)c2)nn1 [Compound 15] | >2.84
28 | CCc1nc(N)nc(N)c1OCc1cn(-c2ccc(C(=O)OC)cc2)nn1 [Compound 18] | >3.68
